Values quoted from earlier work as cited in US20140100282A1, “INTRANASAL ADMINISTRATION OF PHARMACEUTICAL AGENTS FOR TREATMENT OF NEUROLOGICAL DISEASES” (priority 2012, published 2014).

Conditions: systemic treatment

[H]/N=C(/N)N/C(=N/[H])NCCc1ccccc1 [phenformin]
toxicity limiting systemic use: lactic acidosis
